Binding of CDR-mutated scFvs to a peptide of the spike HR2 region

Target: peptide PDVDLGDISGINAS, taken from heptad repeat 2 (HR2) of SARS-CoV-2 spike.

The variants keep the light chain, the linker and the frameworks of Ab-14 (scFv order VH, three GGGGS repeats, VL).
VH: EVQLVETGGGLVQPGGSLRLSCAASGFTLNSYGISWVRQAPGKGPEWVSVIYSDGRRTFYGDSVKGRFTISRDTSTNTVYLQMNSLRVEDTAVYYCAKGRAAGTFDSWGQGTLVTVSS
VL: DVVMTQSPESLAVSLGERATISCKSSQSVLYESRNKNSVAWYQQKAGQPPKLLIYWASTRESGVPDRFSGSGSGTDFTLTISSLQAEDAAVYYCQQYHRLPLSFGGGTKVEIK

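Phage display of a naive human antibody library on the peptide gave the parent. The variants were designed computationally from a first round of random CDR variants and then made and measured. Group labels follow the data file (Ctrl: baseline library sampled from a position-specific scoring matrix, with some repeated check sequences; Rand: our label for a block that the file lists under HC and that is probably the random mutants of the ten best first-round binders; GP: Gaussian process model; GPLM: also part of the Gaussian process libraries; HC: hill climbing; Gen: genetic algorithm; Gibbs: Gibbs sampling; a sequence that several methods proposed may carry one label only). AlphaSeq pools MATa yeast showing the antibodies with MATalpha yeast showing the peptide. After mating in shaken culture at 30 °C for 16 h, diploids were selected and their barcode pairs sequenced. Read counts were normalised to the haploid input and turned into Kd by a linear fit to BCL2-family pairs of known affinity, for each replicate. There are six technical replicates.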

The parent's heavy chain CDRs are GFTLNSYGIS, VIYSDGRRTFYGDSVK, GRAAGTFDS; each variant's own CDRs replace them letter for letter.
This list holds designs with at most six substitutions.
The Kd shown is the geometric mean over detected replicates; a lower Kd is a better binder.
Where no diploid with the target was found in any replicate, the entry reads "not detected": below detection, most likely a poor binder, though not proof of it.
The authors averaged sequences with at least three values out of six and counted those with two or fewer as poor binders.

| CDR-H1 | CDR-H2 | CDR-H3 | group | apparent Kd | replicates with signal |
|---|---|---|---|---|---|
| GKSLNEYGIS | VIYSDGRRTFYGDWVK | GRTAGTFDS | GP_Gibbs | not detected | 0/6 |
| GFELNSYGIS | VIYSDGRRTFYGDSVK | GKTAGTFDG | GP_Gen | 1.2 nM | 6/6 |
| GFTLNSYGIS | VIYSDGKRTFYSDSVK | GRQAGTFDS | GPLM_Gibbs | 3.2 nM | 6/6 |
| GFTLNSYGIS | VIYSDGLRTFYSDSVK | GYHAGTFDS | Ctrl | 2.9 nM | 6/6 |
| GFTILSYGIS | VIYSDGRRTFYGDSVK | GRAATTFEG | Ctrl | not detected | 0/6 |
| GFTLNSYGIS | VIYSDGLRTFYGDSVK | GSAAGTFVL | Ctrl | not detected | 0/6 |
| GFDLNSYGIS | VIYSDGRRTFYSDSVK | GHAGGTFDS | GP_HC | 20 nM | 5/6 |
| GFTLNSYGIS | VIYSDGRRTFYGDSVK | GRIAGTFDS | Ctrl+GPLM_Gen | 2.0 nM | 1/12 |
| GFSLNSYGIS | VIYSDGRRTFYGDSVK | GRVAGTFDV | GPLM_Gen | 4.7 nM | 6/6 |
| GFTLNSYGIS | VIYSDGKRTFYGDKVK | GQAAGTFDL | GP_Gibbs | 37 nM | 5/6 |
| GFDLNSYGIS | VIYSDGRRTFYGDSVK | GRTAGQFNS | GP_HC | 110 nM | 2/6 |
| GFTLNDYGIS | VIYSDGNRTFYIDSVK | GRAAGTFDW | Ctrl | 100 nM | 5/6 |
| GFTLNSYGIS | VIYSDGHRTFYTDSVK | GQLAGTFDS | GPLM_HC | 32 nM | 3/6 |
| GFSLNNYGIS | VIYSDGRRTFYTDSVK | GRTAGTFDS | GPLM_Gen | 4.1 nM | 6/6 |
| LFTLNSYGIS | VIYSDGRRTFYGDSVK | GRAAGTFSS | Ctrl | not detected | 0/6 |
| GFDLNSYGIS | VIYSDGRRTFYSDSVK | GKAAGTFDA | GP_Gen | 4.7 nM | 6/6 |
| GFTLGEYGIS | VIYSDGRRTFYGDSVK | GQAAGTFDS | Ctrl | 7.2 nM | 6/6 |
| GFTLNSYGIS | VIYSDGRRTFYGDSVK | GRLAGTFDV | Ctrl | not detected | 0/6 |
| GFTLNSYGIS | VIYSDGRRTFYGDSVK | GRAAGTFTM | GP_HC | 32 nM | 2/6 |
| GFQLNSYGIS | VIYSDGRRTFYTDSVK | GNAAGTFDS | GP_Gibbs | 4.6 nM | 6/6 |
| GFELNQYGIS | VIYSDGRRTFYGDSVK | GRQAGTFDS | GP_Gen | 2.0 nM | 6/6 |
| KFQLNSYGIS | VIYSDGRRTFYGDSVK | GRAAGTFDS | Ctrl | not detected | 0/6 |
| GFTLNSYGIS | VIYSDGKRTFYSDRVK | GEAAGTFDT | GP_Gibbs | 1.1 nM | 6/6 |
| GFDLNEYGIS | VIYSDGRRTFYCDSVK | GRAAVTFDQ | GP_HC | 84 nM | 1/6 |
| GFTLNSYGIS | VIYADGRRTFYGDSVK | GEAAGTFDM | GPLM_Gen | 440 pM | 6/6 |
| LFSLNMYGIS | VIYSDGRRTAYGDSVK | GRAAGTFKS | Ctrl | not detected | 0/6 |
| KFELNSYGIS | VIYSDGRRTFYADSVK | GRLAGTFDS | GP_Gibbs | 55 nM | 5/6 |
| GFTLNEYGIS | VIYSDGRRTFYGDSVK | GRAAGTFKT | GP_HC | 160 nM | 1/6 |
| GFTLNEYGIS | VIYSDGRRTFYGDSVK | GRAAVTFDD | GPLM_HC | not detected | 0/6 |
| GFSLNSYGIS | VIYSDGRRTFYVDSVK | GKNAGTFDS | GP_Gen | 8.0 nM | 6/6 |
| GFSLNSYGIS | VIYADGMRTFYGDSVK | GRMAGTFNS | Ctrl | 6.3 nM | 6/6 |
| GFTLNEYGIS | VIYSDGRRTFYDDSVK | GRQAGTFDS | GP_HC | 1.6 nM | 6/6 |
| GFLLNEYGIS | VIYSDGRRTFYADSVK | GRTAGTFDS | GPLM_Gen | 1.2 nM | 6/6 |
| GFTLNSYGIS | VIYSDGRRTFYIDSVK | GRAAGFFDS | Ctrl | not detected | 0/6 |
| GFTLNSYGIS | VIYSDGRRTFYGDSVK | GKAAGTFNS | Ctrl | 740 pM | 6/6 |
| GFELNNYGIS | VIYADGRRTFYGDSVK | GRAAGTFDS | GP_HC | 450 pM | 6/6 |
| GEDLNSYGIS | VIYSDGRRTFYADSVK | GRNAGTFDS | GP_Gibbs | 12 nM | 6/6 |
| GFELNDYGIS | VIYSDGRRTFYGDSVK | GRAAGTFDS | Ctrl | 1.9 nM | 6/6 |
| GFTLNSYGIS | VIYSDGKRTFYGDAVK | GEAAGTFDT | GPLM_Gibbs | not detected | 0/6 |
| GFDLNSYGIS | VIYSDGRRTFYGDSVK | GRTAGAFNS | GPLM_HC | 2.4 µM | 1/6 |
| GFQLNSYGIS | VIYSDGRRTVYGDSVK | GRLAGTFDS | GP_HC | not detected | 0/6 |
| GFTLNDYGIS | VIYSDGRRTFYGDSVK | GRAAGTFTK | GPLM_HC | not detected | 0/6 |
| GFTLNSYGLS | VIYSDGRRTFYGDSYK | RRAAGTFRS | Ctrl | not detected | 0/6 |
| GFWLNEYGIS | VIYSDGRRTFYGDSIK | RRAAGTFNS | Ctrl | not detected | 0/6 |
| GFDLNSYGIS | VIYSDGRRTFYGDSVK | GRTAGHFNS | GP_HC | not detected | 0/6 |
| GFTLNSYGIS | VIYSDGHRTFYDDSVK | GKLAGTFDS | GPLM_HC | 83 nM | 6/6 |
| GFTLNSYGIS | VIYSDGRRTFYQDQVK | GRAAGTFDS | Ctrl | not detected | 0/6 |
| SFDLNSYGIS | VIYSDGRRTFYIDSVK | GRTAGTFDS | GP_Gen | 9.1 nM | 6/6 |
| GFTLNSYGIS | VIYSDGRRTFGDDSVK | GQFAGKFDS | Rand | not detected | 0/6 |
| GFTLNSYGIS | VIYADGRRTAYGDSVK | GREAGTFDS | Ctrl | 200 pM | 6/6 |
| GFTINSYGIS | VIYSDGRRTFYGDSVK | GQAKGTFVT | Ctrl | not detected | 0/6 |

For reference, 3 entries of the list once more:

CDR-H1,CDR-H2,CDR-H3,group,apparent Kd,replicates with signal
GFTLNSYGLS,VIYSDGRRTFYGDSYK,RRAAGTFRS,Ctrl,not detected,0/6
GFQLNSYGIS,VIYSDGRRTFYTDSVK,GNAAGTFDS,GP_Gibbs,4.6 nM,6/6
GFWLNEYGIS,VIYSDGRRTFYGDSIK,RRAAGTFNS,Ctrl,not detected,0/6

A sequence measured in both rounds can read differently, since the two assays cover different ranges.
The parent sequence was in this pool as ten entries: three were never detected, three once, and four in most replicates, with averages from 2.2 nM to 240 nM.
Nonspecific signal, from three strains lacking the peptide, appeared in 1% of pairings of all heavy chain designs, centred on 120 nM (5% of these signals below 7.0 nM); values are not corrected for it.
A sequence that the file lists under several names has all its replicates pooled.

Source: Li et al. 2023 (doi:10.1038/s41467-023-39022-2), MIT Lincoln Laboratory and A-Alpha Bio; data file from the FLAb repository.